{"source": "patent US6509030B2", "about": "“Cultured fish carotenoid and polyphenol added feed for improving fish body color tone and fish meat brilliance” (Toshiyuki Sakiura, priority 2000, dated 2003)", "origin": "cited, not measured here", "note": "Where two headings read alike, the source gives them in different places."}
{"substance": "proanthocyanidin", "values": [{"measurement": "chemical stability, acidic", "value": "Stable"}, {"measurement": "chemical stability, acidic", "setting": "listed as proanthocyanidin", "value": "stable"}, {"measurement": "chemical stability, basic", "setting": "basic", "value": "Very unstable"}, {"measurement": "chemical stability, neutral", "setting": "neutral", "value": "A little unstable"}]}
